# Test results reported in patent US20230416232A1, “PYRIMIDINE COMPOUNDS, COMPOSITIONS, AND MEDICINAL APPLICATIONS THEREOF” (Blueprint Medicines Corporation, priority 2020, published 2023).
# Counter-ions that a name gives are not always drawn.
# Legend:
# Assay type in all cases: cell-based
# [1] = biological target: EGFR (A767_dupASV) expressing Ba/F3 stable cell line (Homo sapiens, UniProt P00533, DUP767-769, cells depend on it); assay: Cellular proliferation (Alamar Blue) assay, EGFR (A767_dupASV) Ba/F3; conditions: 72 hr, read-out: A767 IC50
# Procedure: (§1) Cell line details: • 1. EGFR(D770_N771insSVD) expressing Ba/F3 stable cell line • 2. EGFR (A767_dupASV) expressing Ba/F3 stable cell line • 3. A431 cells • 4. EGFR (H773insNPH) expressing Ba/F3 stable cell line • 5. HER2 (A775_G776insYVMA) expressing Ba/F3 stable cell line
# (§2) • 1. Seed cells at 5000 for A431 and 15,000 cells for Ba/F3 in 100 μL/well in complete media (for A431: DMEM with 10% FBS and for Ba/F3 cells: RPMI with 10% FBS) in 96-well tissue culture plate. Leave outer wells without cells for background measurements. Incubate at 37 degree Celsius in 5% CO2 humidified incubator for 16-18 hours. • 2. Add 0.025 ml of 5X concentration compound dilution or DMSO control. Final compound concentration range is 10-0.0005 μM prepared in 3-fold serial dilutions. Incubate for 72 hr at 37 degree Celsius in 5% CO2 humidified incubator. • 3. Add 0.0125 ml Alamar Blue™ reagent to each well with multi-channel pipette and tap gently on each side of the plate to mix. Incubate for 3 hours at 37 degree Celsius in 5% CO2 humidified incubator. • 4. […] Data analysis was performed using XLfit 5.5.0.5.
# [2] = biological target: EGFR(D770_N771insSVD) expressing Ba/F3 stable cell line (Homo sapiens, UniProt P00533, DUP768-770, cells depend on it); assay: Cellular proliferation (Alamar Blue) assay, EGFR(D770_N771insSVD) Ba/F3; conditions: 72 hr, read-out: D770 IC50
# Procedure: as §1, §2
# [3] = biological target: EGFR (H773insNPH) expressing Ba/F3 stable cell line (Homo sapiens, UniProt P00533, DUP771-773, cells depend on it); assay: Cellular proliferation (Alamar Blue) assay, EGFR (H773insNPH) Ba/F3; conditions: 72 hr, read-out: NPH IC50
# Procedure: as §1, §2
# [4] = biological target: HER2 (A775_G776insYVMA) expressing Ba/F3 stable cell line (Homo sapiens, UniProt P04626, DUP772-775, cells depend on it); assay: Cellular proliferation (Alamar Blue) assay, HER2 (A775_G776insYVMA) Ba/F3; conditions: 72 hr, read-out: YVMA IC50
# Procedure: as §1, §2
SMILES,GI50 [1] [nM],GI50 [2] [nM],other results
"C=CC(=O)Nc1cccc(Nc2nc(Nc3cnn(C)c3)ncc2-c2cc(F)c(F)c(F)c2)c1 [Compound 148, N-(3-((2-((1-methyl-1H-pyrazol-4-yl)amino)-5-(3,4,5-trifluorophenyl)pyrimidin-4-yl)amino)phenyl)acrylamide]",33,,
"[2H]C([2H])([2H])n1cc(Nc2ncc(-c3ccc(Br)c(F)c3)c(Nc3cc(NC(=O)C=C)ccc3F)n2)cn1 [Compound 169, N-(3-((5-(4-bromo-3-fluorophenyl)-2-((1-(methyl-d3)-1H-pyrazol-4-yl)amino)pyrimidin-4-yl)amino)-4-fluorophenyl)acrylamide]",33,,
"C=CC(=O)Nc1ccc(F)c(Nc2nc(Nc3cnn(C)c3)ncc2-c2cnc(C(F)(F)F)c(F)c2)c1 [Compound 61, N-(4-fluoro-3-((5-(5-fluoro-6-(trifluoromethyl)pyridin-3-yl)-2-((l-methyl-1H-pyrazol-4-yl)amino)pyrimidin-4-yl)amino)phenyl)acrylamide]",,12,GI50 [3]: 33 nM
"C=CC(=O)Nc1cccc(Nc2nc(Nc3cnn(C)c3)ncc2-c2ccc(OC)c(F)c2)c1 [Compound 69, N-(3-((5-(3-fluoro-4-methoxyphenyl)-2-((1-methyl-1H-pyrazol-4-yl)amino)pyrimidin-4-yl)amino)phenyl)acrylamide]",,12,
"C=CC(=O)Nc1cccc(Nc2nc(Nc3cnn(C)c3)ncc2-c2ccc(N(C)C)c(F)c2)c1 [Compound 30, N-(3-((5-(4-(dimethylamino)-3-fluorophenyl)-2-((1-methyl-1H-pyrazol-4-yl)amino)pyrimidin-4-yl)amino)phenyl)acrylamide]",33,,
"O=C(O)C(F)(F)F.[2H]C([2H])([2H])n1cc(Nc2ncc(-c3cnc(F)c(F)c3)c(Nc3cc(NC(=O)C=C)ccc3F)n2)cn1 [Compound 101, N-(3-((5-(5,6-difluoropyridin-3-yl)-2-((1-(methyl-d3)-1H-pyrazol-4-yl)amino)pyrimidin-4-yl)amino)-4-fluorophenyl)acrylamide]",12,,
"C=CC(=O)Nc1ccc(F)c(Nc2nc(Nc3cnn(C4COC4)c3)ncc2-c2ccc(Br)c(F)c2)c1 [Compound 94, N-(3-((5-(4-bromo-3-fluorophenyl)-2-((1-(oxetan-3-yl)-1H-pyrazol-4-yl)amino)pyrimidin-4-yl)amino)-4-fluorophenyl)acrylamide]",,33,
"C=CC(=O)Nc1ccc(F)c(Nc2nc(Nc3cnn(C)c3)ncc2-c2ccc(Br)c(F)c2)c1 [Compound 87, N-(3-{[5-(4-bromo-3-fluorophenyl)-2-[(1-methyl-1H-pyrazol-4-yl)amino]pyrimidin-4-yl]amino}-4-fluorophenyl) prop-2-enamide]",33,12,
"C=CC(=O)Nc1ccc(F)c(Nc2nc(Nc3cnn(C)c3)ncc2-c2cnc(Cl)c(C)c2)c1 [Compound 48, N-(3-((5-(6-chloro-5-methylpyridin-3-yl)-2-((1-methyl-1H-pyrazol-4-yl)amino)pyrimidin-4-yl)amino)-4-fluorophenyl)acrylamide]",12,12,
"C=CC(=O)Nc1ccc(F)c(Nc2nc(Nc3cnn(C)c3)ncc2-c2cnc(Cl)c(C(F)(F)F)c2)c1 [Compound 44, N-(3-((5-(6-chloro-5-(trifluoromethyl)pyridin-3-yl)-2-((1-methyl-1H-pyrazol-4-yl)amino)pyrimidin-4-yl)amino)-4-fluorophenyl)acrylamidet]",,,GI50 [3]: 33 nM
"C=CC(=O)Nc1ccc(F)c(Nc2nc(Nc3cnn(C)c3)ncc2-c2ccc(OC(F)(F)F)c(F)c2)c1 [Compound 14, N-(4-fluoro-3-((5-(3-fluoro-4-(trifluoromethoxy)phenyl)-2-((1-methyl-1H-pyrazol-4-yl)amino)pyrimidin-4-yl)amino)phenyl)acrylamide]",,33,
"C=CC(=O)Nc1ccc(F)c(Nc2nc(Nc3cnn(C)c3)ncc2-c2cnc(F)c(F)c2)c1 [Compound 29, N-(3-((5-(5,6-difluoropyridin-3-yl)-2-((1-methyl-1H-pyrazol-4-yl)amino)pyrimidin-4-yl)amino)-4-fluorophenyl)acrylamide]",,,GI50 [3]: 33 nM
"C=CC(=O)Nc1ccc(F)c(Nc2nc(Nc3cnn(C)c3)ncc2-c2cc(F)c(C(F)(F)F)c(F)c2)c1 [Compound 20, N-(3-((5-(3,5-difluoro-4-(trifluoromethyl)phenyl)-2-((1-methyl-1H-pyrazol-4-yl)amino)pyrimidin-4-yl)amino)-4-fluorophenyl)acrylamide trifluoroacetate]",,33,
"C=CC(=O)Nc1ccc(F)c(Nc2nc(Nc3cnn(C)c3)ncc2-c2cc(F)cc(Cl)c2)c1 [Compound 34, N-(3-((5-(3-chloro-5-fluorophenyl)-2-((1-methyl-1H-pyrazol-4-yl)amino)pyrimidin-4-yl)amino)-4-fluorophenyl)acrylamide]",,33,
"C=CC(=O)Nc1cccc(Nc2nc(Nc3cnn(C)c3)ncc2-c2ccc(Cl)c(F)c2)c1 [Compound 68, N-(3-((5-(4-chloro-3-fluorophenyl)-2-((1-methyl-1H-pyrazol-4-yl)amino)pyrimidin-4-yl)amino)phenyl)acrylamide]",,,GI50 [4]: 35 nM
